miR-21 reporter: miR-21 reporter, rising signal; HeLa miR-21 FLuc reporter, luciferase, 48 h; Potency, µM (titrated, usually from 38.3 µM), for the others: at the top dose reporter change, positive = more light; 340,000 tested, under 10 active; AID 2288; active = well fitted rising curve with a large enough effect; inconclusive = small, poorly fitted or top-dose-only effect; inactive = no such curve, though single readings can be large or run the other way;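 also: % of control where 0% means no effect; miR-21 action dims this reporter so a rising signal means less miR-21 action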
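Luminescence from a firefly luciferase reporter carrying a miR-21 binding site downstream, stably expressed under a CMV promoter in HeLa cells that make miR-21 endogenously, reports miRNA modulation after 48 h compound exposure up to approximately 40uM final.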
A549 tox: A549 cytotoxicity, counter-screen for Nrf2 inhibitors; A549 ARE-Fluc cells, CellTiter-Fluor viability, 18-24 h; Potency, µM (highest dose often 46 µM), for the others: top-dose activity change, negative = cytotoxicity, usual class: inhibitors; hit rate 0.16% among 390,000; AID 504648; note: potency is the fitted concentration of half-maximal effect; % is set by controls: 0 for no effect and ±100 for the full control effect
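A549 ARE-Fluc cells in 5% FBS OPTI-MEM, 5000 cells/well, rested 2 h then exposed to compounds in concentration-response for 18-24 h at 37 °C. Viability by CellTiter-Fluor fluorescence (Ex 405/Em 525) after 30 min; luciferase luminescence (BugLite, 15 min, RT) read afterwards.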
Nrf2 block: blocks Nrf2 signaling | A549 ARE-Fluc reporter, luciferase luminescence, 18-24 h | Potency, µM (doses to about 46 µM), for inactives: at the top dose activity change, negative = inhibition, actives largely listed as inhibitors | hit rate 2.1% among 360,000; note: potency is the fitted concentration of half-maximal effect; % is set by controls: 0 for no effect and ±100 for the full control effect; nearly all actives have a fitted effect of over 60% in size
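In this cell-based qHTS, ARE-driven firefly luciferase in A549 cells reports Nrf2 activity; the luminescent signal after BugLite lysis is the measured value, with a prior CellTiter-Fluor read for cell health.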
GRP78 ERSR act: inducers of ER stress response in human glioma cells; U87-MG GRP78 promoter luciferase reporter, 16 h; Potency, µM, for the others: top-dose activation, actives largely listed as activators; hit rate 0.02% among 420,000; note: potency is the fitted concentration of half-maximal effect; series mostly up to about 76 µM; % of control where 0% means no effect; nearly all actives have a fitted effect of over 35% in size
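Stably transfected U87-MG glioma cells carrying a GRP78-based luciferase sensor; 16 h compound incubation. Luminescence end-point read 10 min after Bright-Glo addition at room temperature.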
Nrf2 activator: activators of Nrf2 (ARE) signaling; Potency, µM (series often up to 46.1 µM), without a hit: at the highest dose activation, most hits filed as activators; hit rate 0.31% among 410,000; AREc32 ARE-luciferase reporter (MCF7-derived line), luminescence, 24 h; note: potency is the fitted concentration of half-maximal effect; % of control where 0% means no effect; nearly all actives have a fitted effect of over 65% in size
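ARE-driven firefly luciferase activity in AREc32 cells measured after a 24 hr compound exposure at 37 deg C, using Steady-Glo reagent and a 30 min room-temperature hold.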
Mito fusion act: mitochondrial division inhibition or fusion activation. hit rate 0.23% among 320,000. S. cerevisiae fusion-defective mutant growth rescue, CellTiterGlo 48 h. AID 485298. Potency, µM (top dose mostly 46.1 µM), for inactives: at the highest dose growth rescue (activation), usual class: activators; note: potency is the fitted concentration of half-maximal effect; % of control where 0% means no effect; nearly all actives have a fitted effect of over 45% in size
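Luminescent cell viability in 1536-well qHTS format served as the measure of rescued growth in ts fusion-mutant S. cerevisiae cultured on non-fermentable YPEG for 48 hours at 37C.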
* marks the source's active call; other numbers are inactive results; [ ] = remark or other dose. This is a sample that favours compounds with a hit; in the whole collection about 2.3% have one here. Unless noted, calls come from the whole dose curve; as a rule, active = well fitted curve in the direction sought with a large enough effect; inconclusive = small, poorly fitted or top-dose-only effect, or another doubt; inactive = no such curve, though single readings can be large; an effect the other way counts as inactive or inconclusive.

Results for CC(C)(C)[C@H]1C=C(C(=O)N2CCN(Cc3ccc4c(c3)OCO4)CC2)O[C@@H](OCCCCO)C1 ?
miR-21 reporter: -8%; A549 tox: 0%; Nrf2 block: 0%; GRP78 ERSR act: -1%; Nrf2 activator: 0%; Mito fusion act: 0%

How did O=C(c1ccc(Sc2ccccc2)c([N+](=O)[O-])c1)N1CCOCC1 do in these assays?
miR-21 reporter: -14%; A549 tox: -3%; Nrf2 block: -12%; GRP78 ERSR act: 6%; Nrf2 activator: 1%; Mito fusion act: 29%

Results for COc1ccc(C(=O)Nc2nc3cc4c(cc3s2)OCCO4)c(OC)c1 ?
miR-21 reporter: -44%; A549 tox: -4%; Nrf2 block: 21µM*; GRP78 ERSR act: 1%; Nrf2 activator: 4%; Mito fusion act: 3%

What do the screens show for `O=C(Nc1nc2cc3c(cc2s1)OCCO3)c1ccc([N+](=O)[O-])o1`?
miR-21 reporter: -35%; A549 tox: -4%; Nrf2 block: 19%; GRP78 ERSR act: inconclusive; Nrf2 activator: 7.1µM*; Mito fusion act: -7%

How did COc1ccc(C(=O)Nc2nnc(-c3ccc(F)cc3)s2)c(OC)c1 do in these assays?
miR-21 reporter: -6%; A549 tox: -1%; Nrf2 block: 16µM*; GRP78 ERSR act: -3%; Nrf2 activator: 0%; Mito fusion act: -2%

What do the screens show for `Cc1ccc(C)c(-c2nnc(NC(=O)c3ccc([N+](=O)[O-])o3)o2)c1`?
A549 tox: -25%; Nrf2 block: -8%; GRP78 ERSR act: 0%; Nrf2 activator: 3.5µM*; Mito fusion act: inconclusive

How did CC1=CC(C)(C)N(C(=O)CSc2nnc(N)s2)c2ccccc21 do in these assays?
miR-21 reporter: -7%; A549 tox: 5%; Nrf2 block: -3%; GRP78 ERSR act: -4%; Nrf2 activator: 1%; Mito fusion act: 6%

Results for NC(=O)CSc1nc2c(sc3ccccc32)c(=O)n1CCCN1CCOCC1 ?
miR-21 reporter: -5%; A549 tox: -2%; Nrf2 block: 22%; GRP78 ERSR act: 2%; Nrf2 activator: 3%; Mito fusion act: 1%

What do the screens show for `Cc1cc(C)cc(NC(=O)Nc2cccnc2)c1`?
miR-21 reporter: -26%; A549 tox: 1%; Nrf2 block: 8%; GRP78 ERSR act: 9%; Nrf2 activator: 4%; Mito fusion act: 29%

Results for Cc1ccc(NC(=O)Nc2cccnc2)cc1NC(=O)Nc1cccnc1 ?
miR-21 reporter: -1%; A549 tox: -16%; Nrf2 block: 18µM*; GRP78 ERSR act: 0%; Nrf2 activator: 0%; Mito fusion act: 11%

Results for Cc1ccc(-n2nnnc2SCC(=O)NNC(=O)c2ccco2)cc1C ?
miR-21 reporter: -7%; A549 tox: -10%[1.84 µM]; Nrf2 block: -25%; GRP78 ERSR act: -2%; Nrf2 activator: 0%; Mito fusion act: -2%

Results for Cc1ccc(OCC(O)Cn2c3ccccc3c3ccccc32)cc1 (stereo not drawn) ?
miR-21 reporter: 14%; A549 tox: -28%; Nrf2 block: inconclusive; GRP78 ERSR act: -1%; Nrf2 activator: 2%; Mito fusion act: -26%

Results for CC(=O)N(C)c1ccc(OCC(O)Cn2c3ccc(Cl)cc3c3cc(Cl)ccc32)cc1 (stereo not drawn) ?
miR-21 reporter: -6%; A549 tox: inconclusive; Nrf2 block: 21µM*; GRP78 ERSR act: -6%; Nrf2 activator: -2%; Mito fusion act: -14%

Results for C/C(=N\NC(=O)COc1ccccc1[N+](=O)[O-])c1cccs1 ?
miR-21 reporter: -69%; A549 tox: 1%; Nrf2 block: inconclusive; GRP78 ERSR act: 3%; Nrf2 activator: 8.9µM*; Mito fusion act: -8%

How did COc1ccc(OCC(=O)N/N=C(\C)c2cccs2)cc1 do in these assays?
miR-21 reporter: -6%; A549 tox: 23%; Nrf2 block: 6%; GRP78 ERSR act: -5%; Nrf2 activator: 0%; Mito fusion act: -2%

By substructure, those above with a halogen.
How did COc1ccc(C(=O)Nc2nnc(-c3ccc(F)cc3)s2)c(OC)c1 do in these assays?
miR-21 reporter: -6%; A549 tox: -1%; Nrf2 block: 16µM*; GRP78 ERSR act: -3%; Nrf2 activator: 0%; Mito fusion act: -2%

Results for CC(=O)N(C)c1ccc(OCC(O)Cn2c3ccc(Cl)cc3c3cc(Cl)ccc32)cc1 (stereo not drawn) ?
miR-21 reporter: -6%; A549 tox: inconclusive; Nrf2 block: 21µM*; GRP78 ERSR act: -6%; Nrf2 activator: -2%; Mito fusion act: -14%

Bioassay records as filed in PubChem BioAssay.
